Assays:
[1] = Aqueous solubility of Dorzolamide in the presence of Timolol with HP, PEG, Polysorbate 80 (Experimental Example 3); format: physicochemical; conditions: pH 5.65, in the presence of Timolol, in all cases (control and additives)
Method: The final pH was adjusted to 5.65 with 1 M NaOH after addition of HP (sample 1). The combination of different molecular weight PEG and Polysorbate 80 at pH 5.65 as per Table 3 were also attempted. […] After allowing the suspensions to equilibrate at room temperature for an additional 30 minutes, the suspension solutions were then sonicated for 10 minutes and finally filtered through 0.45 μm syringe filters.

intact rabbit corneas = conditions: male, New Zealand, 180 min, pH 7.4
[2] = pH-solubility of Dorzolamide with hyperbranched polymer and PEG (Experimental Example 1); format: physicochemical; conditions: phosphate buffer pH 7
Method: Similar suspensions were also prepared in aqueous solution containing different concentrations of different HP and PEG with a molecular weight of 8000. A combination of Polysorbate 80 and PEG 8000 was also attempted. The pH was measured accurately with micro-pH electrode (Thermo Scientific). The desired pH was adjusted using either 1 M NaOH or 1 M HCl. […] After allowing the suspensions to equilibrate at room temperature for an additional 30 minutes, the suspension solutions were then sonicated for 10 minutes and finally filtered through 0.45 μm syringe filters.

[3] = pH 7.4, 0.5% (w/v) Timolol, 5% (w/v) HP (Boltorn W3000)

SMILES: CCN[C@H]1C[C@H](C)S(=O)(=O)c2sc(S(N)(=O)=O)cc21 [Dorzolamide]
- solubility of Dorzolamide [1]: above 2%
- cumulative amount permeated relative to control formulation at similar pH with no additives (intact rabbit corneas): ~2 times
- solubility of Dorzolamide ([2]; 17% of PEG 8000 and 1% Lupasol PS): 2 % (w/v)
- solubility of Dorzolamide ([2]; about 20% PEG 8000 and 0.5% of Lupasol PS): 2 % (w/v)
- solubility [3]: about 2 % (w/v)

Source: patent publication US20130053374A1, “OPHTHALMIC COMPOSITION” (priority 2010, published 2013)
